Target: T1, MMP-1 (Homo sapiens, UniProt P03956)
T1 construct: host or cells: transfected HT-1080 cells
T1 sequence (P03956 100-469): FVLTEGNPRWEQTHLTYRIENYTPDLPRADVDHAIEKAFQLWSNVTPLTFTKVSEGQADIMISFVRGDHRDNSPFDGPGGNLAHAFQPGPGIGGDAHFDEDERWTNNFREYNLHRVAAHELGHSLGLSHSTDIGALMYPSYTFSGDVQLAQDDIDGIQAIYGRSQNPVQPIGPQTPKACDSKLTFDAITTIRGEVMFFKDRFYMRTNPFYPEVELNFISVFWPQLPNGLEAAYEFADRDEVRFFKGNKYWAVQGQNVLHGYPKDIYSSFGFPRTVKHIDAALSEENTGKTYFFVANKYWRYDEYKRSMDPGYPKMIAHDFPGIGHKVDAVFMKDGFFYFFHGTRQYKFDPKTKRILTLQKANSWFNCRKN
Experiment: In vitro metalloprotease inhibition, fluorogenic MCA peptide substrate
Type: biochemical
Conditions: recombinant human enzyme, APMA-activated, room temperature, pH 7.5

SMILES | IC50 [nM]
CC(CS(=O)(=O)c1ccc(Oc2ccccc2)cc1)(NCc1ccc2c(c1)OCO2)C(=O)NO (centres unmarked) [Example 66] | 2350
CC(CS(=O)(=O)c1ccc(Oc2ccccc2)cc1)(NCc1ccccc1)C(=O)NO (centres unmarked) [Example 56] | 1200

From patent publication US6583299B1, “α-amino-β-sulfonyl hydroxamic acid compounds” (priority 1999, dated 2003)
